We go through nine molecules from ChEMBL document CHEMBL1130165, “Butitaxel analogues: synthesis and structure-activity relationships” (J Med Chem, 1997).

Sequences of proteins named here, by UniProt entry; tags and fusion partners are left off.
UniProt Q9H4B7, whole entry: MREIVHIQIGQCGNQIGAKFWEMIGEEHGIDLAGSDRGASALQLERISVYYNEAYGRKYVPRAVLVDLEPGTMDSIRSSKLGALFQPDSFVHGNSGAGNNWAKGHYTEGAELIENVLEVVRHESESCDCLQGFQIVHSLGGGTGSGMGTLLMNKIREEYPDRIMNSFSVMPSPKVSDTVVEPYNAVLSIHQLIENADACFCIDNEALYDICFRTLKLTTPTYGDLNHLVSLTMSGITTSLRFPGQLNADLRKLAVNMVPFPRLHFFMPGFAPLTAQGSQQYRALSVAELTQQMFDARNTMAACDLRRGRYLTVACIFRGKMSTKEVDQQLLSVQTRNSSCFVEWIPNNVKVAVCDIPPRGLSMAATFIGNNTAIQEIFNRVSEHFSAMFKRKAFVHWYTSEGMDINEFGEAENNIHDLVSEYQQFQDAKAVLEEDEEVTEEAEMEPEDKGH

The first data set deals with B16. Kind of data set: Ratio of ED50 of compound to that of ED50 of paclitaxel; ED50 expressed as concentration which produces 50% inhibition of proliferation of B16 melanoma cells after 40h incubation. The class given is functional, Mus musculus. Put shortly: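 B16 melanoma cells were incubated with compound for 40 h. ED50 is the concentration giving 50% inhibition of proliferation. Each value is expressed as a ratio to the paclitaxel ED50.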
Take `CC(=O)O[C@@]12COC1C[C@H](O)[C@@]1(C)C(=O)[C@H](O)C3=C(C)[C@@H](OC(=O)[C@H](O)[C@@H](NC(=O)/C=C/c4cccs4)C(C)(C)C)C[C@@](O)([C@@H](OC(=O)c4ccccc4)[C@@H]12)C3(C)C` (stereo not given in full): the ED50 ratio was 2.7.

The target in the next data set is Tubulin beta-1 chain (Homo sapiens) (UniProt Q9H4B7). Kind of data set: Ratio of ED50 of compound to that of ED50 of paclitaxel; ED50 expressed as concentration which causes polymerization of 50% of the tubulin in microtubule assembly assay (in vitro). The class given is functional. Put shortly: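 In vitro microtubule assembly assay. […] Each compound's ED50 is expressed as a ratio to the paclitaxel ED50.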
For `CC(=O)O[C@@]12COC1C[C@H](O)[C@@]1(C)C(=O)[C@H](O)C3=C(C)[C@@H](OC(=O)[C@H](O)[C@@H](NC(=O)c4ccc(C)s4)C(C)(C)C)C[C@@](O)([C@@H](OC(=O)c4ccccc4)[C@@H]12)C3(C)C` (stereo not given in full), the ED50 ratio turned out to be 2.4. Still for that read-out and setting: the same measure for `CCCCOC(=O)N[C@H]([C@@H](O)C(=O)O[C@H]1C[C@@]2(O)[C@@H](OC(=O)c3ccccc3)[C@@H]3[C@]4(OC(C)=O)COC4C[C@](C)(O)[C@@]3(C)C(=O)[C@H](O)C(=C1C)C2(C)C)C(C)(C)C` (stereo not given in full): 0.86; for `CCOC(=O)N[C@H]([C@@H](O)C(=O)O[C@H]1C[C@@]2(O)[C@@H](OC(=O)c3ccccc3)[C@H]3[C@](C)(C(=O)[C@H](O)C(=C1C)C2(C)C)[C@@H](O)CC1OC[C@]13OC(C)=O)C(C)(C)C` (stereo not given in full): 1.4; for `CC(=O)O[C@@]12COC1C[C@H](O)[C@@]1(C)C(=O)[C@H](O)C3=C(C)[C@@H](OC(=O)[C@H](O)[C@@H](NC(=O)OC(C)C)C(C)(C)C)C[C@@](O)([C@@H](OC(=O)c4ccccc4)[C@@H]12)C3(C)C` (stereo not given in full): 0.84. Same read-out and setting: the same measure for `CC(=O)O[C@@]12COC1C[C@H](O)[C@@]1(C)C(=O)[C@H](O)C3=C(C)[C@@H](OC(=O)[C@H](O)[C@@H](NC(=O)c4cccn4C)C(C)(C)C)C[C@@](O)([C@@H](OC(=O)c4ccccc4)[C@@H]12)C3(C)C` (stereo not given in full): 0.96; for `CC(=O)O[C@@]12COC1C[C@H](O)[C@@]1(C)C(=O)[C@H](O)C3=C(C)[C@@H](OC(=O)[C@H](O)[C@@H](NC(=O)c4ccsc4)C(C)(C)C)C[C@@](O)([C@@H](OC(=O)c4ccccc4)[C@@H]12)C3(C)C` (stereo not given in full): 0.85; for `CC(=O)O[C@@]12COC1C[C@H](O)[C@@]1(C)C(=O)[C@H](O)C3=C(C)[C@@H](OC(=O)[C@H](O)[C@@H](NC(=O)c4ccco4)C(C)(C)C)C[C@@](O)([C@@H](OC(=O)c4ccccc4)[C@@H]12)C3(C)C` (stereo not given in full): 1.5.

On to `CC(=O)O[C@@]12COC1C[C@H](O)[C@@]1(C)C(=O)[C@H](O)C3=C(C)[C@@H](OC(=O)[C@H](O)[C@@H](NC(=O)C4CCCCC4)C(C)(C)C)C[C@@](O)([C@@H](OC(=O)c4ccccc4)[C@@H]12)C3(C)C` (stereo not given in full), for which the ED50 ratio turned out to be 1.5.

Test system in a further data set: not listed separately
Kind of data set: Ratio of solubility to that of paclitaxel solubility. The class given is ADME.
`CC(=O)O[C@@]12COC1C[C@H](O)[C@@]1(C)C(=O)[C@H](O)C3=C(C)[C@@H](OC(=O)[C@H](O)[C@@H](NC(=O)/C=C/c4cccs4)C(C)(C)C)C[C@@](O)([C@@H](OC(=O)c4ccccc4)[C@@H]12)C3(C)C` (stereo not given in full): the Ratio is given as 3.
